Measured values published in patent US9999596B2 (priority 2004, dated 2018).

Settings: female, Fischer 344, rat, in vivo, iv, 10 mg/kg

CC[C@@]1(O)C(=O)OCc2c1cc1n(c2=O)Cc2cc3c(CN(C)C)c(O)ccc3nc2-1 [TPT, 9-amino-dimethyl-10-hydroxycamptothecin]
Vss/F: 1790.14 ± 348.83 mL
